Screening results deposited in PubChem by National Center for Advancing Translational Sciences (NCATS).
PTHR1 ag: activates the human parathyroid hormone receptor PTHR1; HEK293 GP2 PTHR1 cells, GloSensor cAMP luminescence, 1 h; Q03431; AID 743266; Potency, µM (doses to about 115 µM), for the others: at the top dose activation, hits mostly activators; 410,000 tested, 0.075% active; note: potency is the fitted concentration of half-maximal effect; nearly all actives have a fitted effect of over 55% in size
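HEK-293-derived GP2 cells expressing PTHR1 and a GloSensor cAMP reporter, 3,000/well, plated overnight, given luciferin plus IBMX (each 0.5 mM as added) for 1 h at 37 °C, then compound for 1 h at 37 °C. Luminescence was read after 15 min at room temperature.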
ERG-DNA inh: blocks human ERG Ets domain binding to DNA | P11308 | fluorescence polarization, His-ERG Ets domain / labelled DNA | Potency, µM (top dose mostly 76.9 µM), without a hit: at the highest dose FP activity, negative = inhibition, actives largely listed as inhibitors | 370,000 tested, 0.028% active | AID 624246; active = well fitted inhibition curve with a large enough effect in the polarisation, with a control signal flat; inconclusive = small, poorly fitted or top-dose-only effect, or effect the other way, or a change in a side signal; inactive = no such curve, though single readings can be large or run the other way; the % refers to the polarisation;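 note: polarization taken with two DNA probes labelled with fluorescein and Texas red; potency is the fitted concentration of half-maximal effect; % of control where 0% means no effect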
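His-tagged ERG Ets domain (1 uM in the protein solution; 300mM KCl, 50mM Tris-HCl, 1mM EDTA, 1mM DTT, pH 7.5) received compound, then a probe mix of 5 nM fluorescein-DNA and 100nM Texas-615-DNA. Fluorescence polarization was read for both dyes.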
PINK1 expr mod: PINK1 expression modulation | PINK1 immunofluorescence, high-content cytometry, 24 h | Potency, µM (highest dose often 76.6 µM), inactives show at the highest dose activation (PINK1 increase), hits mostly activators | 410,000 tested, 0.2% active | AID 624263; active = well fitted activation curve with a large enough effect; inconclusive = small, poorly fitted or top-dose-only effect; cell line not stated here; note: potency is the fitted concentration of half-maximal effect; % of control where 0% means no effect; nearly all actives have a fitted effect of over 65% in size
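Stable cell line treated 24 h with compounds at 5 concentrations (CCCP controls), then fixed and immunostained for PINK1 plus nuclear and cell stains; PINK1 immunofluorescence quantified by laser-scanning microplate cytometry.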
miR-21 reporter: raises the signal of a miR-21 reporter | HeLa miR-21 FLuc reporter, luciferase, 48 h | Potency, µM (doses to about 38.3 µM), without a hit: at the top dose reporter change, positive = more light | 340,000 tested, under 10 active | AID 2288; active = well fitted rising curve with a large enough effect; inconclusive = small, poorly fitted or top-dose-only effect; inactive = no such curve, though single readings can be large or run the other way;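 note: % of control where 0% means no effect; miR-21 action dims this reporter so a rising signal means less miR-21 action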
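Using DMEM plus 10% FBS, HeLa miR-21-FLuc cells are incubated with test compounds (final up to about 40uM) for 48 hours; firefly luciferase signal is then imaged following reagent-mediated lysis.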
ALOX12 inh: inhibitors of human 12S-lipoxygenase ALOX12 | purified 12hLO, xylenol orange hydroperoxide absorbance | AID 1671190 | 580,000 tested, 1.1% active | Potency, µM (titrated, usually from 108 µM), without a hit: top-dose activity change, negative = inhibition, actives largely listed as inhibitors; note: potency is the fitted concentration of half-maximal effect; % is set by controls: 0 for no effect and ±100 for the full control effect
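Hydroperoxide product was detected by ferrous iron/xylenol orange as the 573 to 405 nm absorbance ratio. Arachidonic acid at 40 uM (final) was turned over for 30 min at room temperature by 150 nM human 12hLO, pH 7.0 Hepes buffer, after 15 min compound preincubation.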
Giardia killer: kills Giardia lamblia; activity change, % at 7.66 µM, hits read low; Giardia lamblia trophozoite viability; 340,000 tested, 0.15% active; in the data active = activity change below about -80%; inconclusive = between about -30% and that limit;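 note: parasites exposed to compound for two days anaerobically before the ATP read; % is set by controls: 0 for no effect and ±100 for the full control effect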
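Anaerobic 48 hrs incubation at 37 deg C of 100 trophozoites/well with test compounds; ATPLite 1-Step luminescence, 15-30 min RT, reports cellular ATP as viability.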
An asterisk follows results filed as active; i = inactive; ? = inconclusive; nt = no result given; [ ] = another dose, or the depositor's remark. The list is not random: actives were taken first. Their share in the collection is about 1.3%. Unless noted, calls come from the whole dose curve; as a rule, active = well fitted curve in the direction sought with a large enough effect; inconclusive = small, poorly fitted or top-dose-only effect, or another doubt; inactive = no such curve, though single readings can be large; an effect the other way counts as inactive or inconclusive.

SMILES | PTHR1 ag | ERG-DNA inh | PINK1 expr mod | miR-21 reporter | ALOX12 inh | Giardia killer
Cc1ccc(Nc2n[nH]c(=S)s2)c(C)c1 | i | nt | 1% | nt | 25µM* | nt
CC(=O)Nc1n[nH]c(=S)s1 | 25% | nt | 1% | nt | -22% | 72
COC(C[C@H]1O[C@H]1C(=O)COCc1ccccc1)OC | 2% | -4% | -2% | 3% | 4% | 2
COc1ccccc1S(=O)(=O)N(C)C[C@H]1Oc2ncc(Br)cc2C(=O)N([C@H](C)CO)C[C@H]1C | -25% | nt | -1% | nt | 0% | nt
CCc1cc(C(c2ccc(OC)cc2)N2CCOCC2)c(NC(=O)c2ccco2)s1 (stereo not given) | nt | nt | nt | nt | 7.1µM* | nt
Cc1sc(NC(=O)c2ccco2)c(C(c2ccc(F)cc2)N2CCN(C)CC2)c1C (stereo not given) | i | -8% | 0% | 17% | nt | -7
CCc1cc(C(c2ccc(F)cc2)N2CCN(CC)CC2)c(NC(=O)c2ccco2)s1 (stereo not given) | nt | nt | nt | nt | 10µM* | nt
CCOC(=O)C1=CNS(=O)(=O)NC1c1ccccc1 (stereo not given) | -6% | 9% | -1% | nt | -7% | -2
CC[N+](C)(C)c1ccc(/C=C/c2ccc3ccccc3n2)cc1 | nt | nt | 5µM* | nt | nt | nt
CC(=O)/C=C/c1ccc2ccccc2n1 | -16%[57.5 µM] | -8% | 0% | ? | ? | 9
CN1CC(=O)N(C2CCCNC2)Cc2c(NCc3ccc4c(c3)OCO4)ncnc21 (stereo not given) | nt | nt | nt | nt | 4.5µM* | nt
O=C1C(Cl)=C(NCCCO)C(=O)c2ccccc21 | i | -8% | -1% | 13% | 0% | ?
O=C1C(SCCO)=C(SCCO)C(=O)c2ccccc21 | -94% | 13µM* | 4% | nt | ? | 3
COc1cc(CCC(=O)Nc2cnc3ccccc3c2)cc(OC)c1OC | i | 2% | 0% | 4% | 0% | -9
COc1ccc(CCC(=O)Nc2cnc3ccccc3c2)cc1 | -25% | 1% | 2% | -26% | 13µM* | -9
Cc1ccc(C(=O)Nc2ccc3ncccc3c2)cc1 | -23% | -3% | 1% | 20% | 5% | -85*
CN(C)c1ccc(C(=O)Nc2cnc3ccccc3c2)cc1 | nt | nt | nt | nt | 40µM* | nt
COc1ccc(NC(=O)CSc2nc3ccccc3cc2Cc2ccccc2)cc1 | i | 2% | 11µM* | 2% | 7% | -13
O=C(Nc1cnc2ccccc2c1)c1ccncc1 | i | 16% | 2% | -18% | 5% | -22
CCCC(NC(=O)c1c(F)cccc1F)c1ccccc1 (stereo not given) | nt | nt | nt | nt | -5% | nt
CCC(CC)NC(=O)c1ccc2c(c1)OCCO2 | i | -4% | -1% | -11% | -2% | -9
CC(C)CNS(=O)(=O)c1ccc(CCC(=O)N2CCOCC2)cc1 | i | -5% | 0% | -1% | 0% | -16
CN1CCCCC(NC(=O)c2ccccn2)C1=O (stereo not given) | nt | nt | nt | nt | 8% | nt
Cc1cccc(N2CCN(CC3CCCCC3)CC2)c1C | ? | 11% | 17% | 10% | -12% | 14
Cc1ccc(C)c(N2CCN(CC3CCCCC3)CC2)c1 | -35% | 15% | 14% | 7% | 4.5µM* | 8
CC(=O)c1sc(NC(C)C)c(C#N)c1N | nt | nt | nt | nt | 18µM* | nt
N#CCCn1cc(/C=N/NC(N)=S)c(-c2ccc(Br)cc2)n1 | i | -1% | 0% | 4% | ? | -4
N#CCCn1cc(/C=N/NC(N)=S)c(-c2ccccc2)n1 | i | 0% | 0% | 2% | 25µM* | 3
COc1ccc(-c2nn(-c3ccccc3)cc2/C=N/NC(N)=S)cc1OC | i | 7% | 6% | 11% | 32µM* | -4
Nc1nc(C2CC(O)C2)cc(N2CCCN(Cc3ccccn3)CC2)n1 (stereo not given) | nt | nt | nt | nt | 101% | nt

Fetched by structure from the list above, two records:
SMILES | PTHR1 ag | ERG-DNA inh | PINK1 expr mod | miR-21 reporter | ALOX12 inh | Giardia killer
CC(C)CNS(=O)(=O)c1ccc(CCC(=O)N2CCOCC2)cc1 | i | -5% | 0% | -1% | 0% | -16
N#CCCn1cc(/C=N/NC(N)=S)c(-c2ccccc2)n1 | i | 0% | 0% | 2% | 25µM* | 3

Filtered by structure: the compounds so far with two or more sulfur atoms
SMILES | PTHR1 ag | ERG-DNA inh | PINK1 expr mod | miR-21 reporter | ALOX12 inh | Giardia killer
Cc1ccc(Nc2n[nH]c(=S)s2)c(C)c1 | i | nt | 1% | nt | 25µM* | nt
CC(=O)Nc1n[nH]c(=S)s1 | 25% | nt | 1% | nt | -22% | 72
O=C1C(SCCO)=C(SCCO)C(=O)c2ccccc21 | -94% | 13µM* | 4% | nt | ? | 3

Remaining list, next part:
SMILES | PTHR1 ag | ERG-DNA inh | PINK1 expr mod | miR-21 reporter | ALOX12 inh | Giardia killer
O=C(Nc1cccc(Cl)c1N1CCOCC1)c1ccc(Br)o1 | -26% | 0% | 2% | -5% | 0% | -4
O=C1Nc2ccccc2Oc2cc([N+](=O)[O-])cc(Oc3ccccc3)c21 | i | nt | 15% | -8% | 1% | -8
O=[N+]([O-])c1cc2c(c([N+](=O)[O-])c1)Nc1ccccc1O2 | -51% | nt | 14µM* | nt | -25% | nt
COc1ccc(C2=NNC(=Nc3cc(S(=O)(=O)N(C)C)ccc3C)SC2)c(OC)c1 | -71% | -5% | 2.8µM* | 28% | 32% | -8
Cc1cc(C2=NNC(=Nc3ccccc3)SC2)c(C)n1C | -4% | 3% | 2% | -15% | 14µM* | 10
COCCn1c(C)cc(C2=NNC(=Nc3ccccc3F)SC2)c1C | -15% | -3% | ? | 6% | ? | -13
CN(C)S(=O)(=O)c1cccc(N=C2NN=C(c3ccccc3)CS2)c1 | i | -1% | 32µM* | ? | -12% | -5
CC(=O)Nc1ccc(C2=NNC(=Nc3cccc(S(=O)(=O)N(C)C)c3)SC2)cc1 | i | -5% | ? | ? | nt | 25
CC(C)c1cccc(NC(=O)CCn2cnc3c2c(=O)n(C)c(=O)n3C)c1 | nt | nt | nt | nt | 19% | nt
c1cncc(C2=NOC3(CCN(Cc4c[nH]c5ccccc45)CC3)C2)c1 | nt | nt | nt | nt | 3%[6.33 µM] | nt
COc1cccc(C2=CC(c3ccccc3O)NC(C)(C)N2)c1 (stereo not given) | nt | nt | 1% | nt | nt | -8
COc1cc(OC)cc(-n2nnnc2SCC(=O)N2CCCc3ccccc32)c1 | i | nt | nt | -2% | -9% | -18
NNc1nnc2c3cc(F)ccc3n(Cc3ccccc3)c2n1 | i | 8% | 32µM* | -7% | 0% | 2
CC[n+]1c(/C=C/c2ccc(OC)c(OC)c2)ccc2ccccc21 | -33% | -2% | 2% | -35% | 7.9µM* | 8
c1ccc(-n2nnnc2NC2CCCCC2)cc1 | -21%[57.5 µM] | 5% | 2.8µM* | 2% | 23% | 9
CC(=O)c1c(O)c(C)c(O)c2c1OC1=CC(=O)C(C(C)=O)C(=O)C12C (stereo not given) | nt | nt | 0% | nt | nt | nt
CC(=O)Oc1c(C)c(OC(C)=O)c2c(c1C(C)=O)OC1CC(=O)C(C(C)=O)=C(O)C21C (stereo not given) | i | -3% | -1% | 23% | 28µM* | -25
N#C/C(=C/c1cccn1-c1cccc(C(=O)O)c1)c1ccc(Cl)cc1 | -21% | -8% | -1% | -2% | 45µM* | -7
N#C/C(=C/c1cccn1-c1cccc(C(F)(F)F)c1)c1ccc([N+](=O)[O-])cc1 | nt | nt | nt | nt | 2% | nt
O=S(=O)(NCCc1csc(-c2ccc(F)cc2)n1)c1ccc(Cl)cc1 | -85% | -4% | 7% | 19% | 28µM* | nt
Cc1ccc(S(=O)(=O)NCCc2csc(-c3ccc(Cl)cc3)n2)cc1 | -27% | -1% | 3% | 25% | ? | nt
